US6803371B2, “Purine inhibitors of protein kinases, G proteins and polymerases” (The Regents of the University of California, priority 1997, dated 2004)

Target: cdc2/cyclinB
Assay: cdc2/cyclinB kinase inhibition
Type: biochemical

**Q.** With `COc1ccc(CNc2nc(N(CCN(C)C)Cc3ccccc3)nc3c2ncn3C(C)C)cc1` [NG-40] as the molecule, how does the IC50 read?
**A.** 600 nM
